Values quoted from earlier work, collected in patent US7381400B2, “Injection of a radioactive dye for sentinel lymph node identification” (Board of Supervisors of Louisiana State University And …, priority 2004, dated 2008).

Details: about 4 to 5 cc injected into the tumor region; cited from earlier work

In the case of `CN(C)c1ccc2nc3ccc(N(C)C)cc3[s+]c2c1.[Cl-]` [Methylene blue, 3,7-bis (dimethylamino)phenothiazine-5-ium chloride], the reported adverse events is given as “not been associated with reported adverse events”.
